Patent US12173004B2, “Pharmaceutical compositions comprising heterocycle fused gamma carboline prodrugs” (INTRA-CELLULAR THERAPIES, INC., priority 2017, dated 2024)

What was measured:
[1] = target: 5-HT2A (Homo sapiens (Human), UniProt P28223); details: read-out: Ki (nM) 5-HT2A
[2] = target: SERT (Homo sapiens (Human), UniProt P31645); assay: biochemical; details: read-out: maximum inhibition SERT
[3] = mouse, in vivo, sc, 0.1 mg/kg
[4] = in vivo; details: mouse

| Structure (SMILES) | Ki [1] [nM] | inhibition at 0.24 µM [2] [%] | Plasma (ng/mL), 4 hr [3] [ng/mL] | AUC(0-t) ([4]; brain, po, 10 mg/kg) [ng·h/mL] | AUC(0-t) ([4]; brain, sc, 0.1 mg/kg) [ng·h/mL] | AUC(0-t) ([4]; plasma, sc, 0.1 mg/kg) [ng·h/mL] | Cmax ([4]; plasma, sc, 0.1 mg/kg) [ng/mL] |
| --- | --- | --- | --- | --- | --- | --- | --- |
| O=C1CN2c3c(cccc3[C@@H]3CN(CCCC(=O)c4ccc(F)cc4)CC[C@@H]32)N1 [Example 1] | 11 | 44 |  |  |  |  |  |
| O=C1CN2c3c(cccc3[C@@H]3CN(CCCOc4ccc(F)cc4)CC[C@@H]32)N1 [Example 2, (6bR,10aS)-8-(3-(4-fluorophenoxy)propyl)-6b,7,8,9,10,10a-hexahydro-1H-pyrido[3′,4′:4,5]pyrrolo[1,2,3-de]quinoxalin-2(3H)-one] |  |  | 4.7 | 2490 | 191 | 67 | 31.1 |
